Here are results for 61 compounds from PubChem BioAssay AID652257 (The Scripps Research Institute Molecular Screening Center, 2013).

Amino acid sequences for entries named in this document (tags omitted).
UniProt Q99873, whole entry: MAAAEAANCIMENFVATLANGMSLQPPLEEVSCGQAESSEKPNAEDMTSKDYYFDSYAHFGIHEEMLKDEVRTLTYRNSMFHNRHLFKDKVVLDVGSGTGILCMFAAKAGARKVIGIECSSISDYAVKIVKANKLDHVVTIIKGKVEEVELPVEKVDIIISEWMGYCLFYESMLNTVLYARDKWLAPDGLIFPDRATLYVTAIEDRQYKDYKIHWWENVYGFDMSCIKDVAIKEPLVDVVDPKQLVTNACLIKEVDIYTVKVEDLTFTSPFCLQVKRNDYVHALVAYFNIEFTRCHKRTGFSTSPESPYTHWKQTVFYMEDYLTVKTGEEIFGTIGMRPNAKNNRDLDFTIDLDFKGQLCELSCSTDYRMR

Only a part is listed here, and it is no random draw. The source made the active and inactive calls.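 How the source made its calls: active means inhibition above about 21% made by adding two undisclosed values (limit read from the data); inactive means the rest.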

In this assay the target is Protein arginine N-methyltransferase 1 (Homo sapiens) (UniProt Q99873). The assay can be described thus: PRMT1 methyltransferase inhibitors, primary screen, biochemical, fluorescence polarization (AID 652257). Particulars: recombinant PRMT1, activity-based probe fluorescence polarization; at 2.79 µM; active compounds read high.
Consider `CCC(CO)(C(=O)OC1CN2CCC1CC2)c1ccccc1` (stereo unspecified), for which the inhibition is inactive: -0.79%. Consider `COc1cccc(C(c2nnnn2C2CCCC2)N2CCC(n3c(=O)[nH]c4ccccc43)CC2)c1OC` (stereo unspecified), for which the inhibition is inactive: -3.6%.

For the compound `COc1cc(OC)cc(C(=O)NCC2(N3CCOCC3)CCCCC2)c1`, the inhibition is inactive: -0.85%. `COc1cccc(C(=O)N(c2cc(C)cc(C)c2)C2CCN(C(=O)OC(C)(C)C)CC2)c1`: the inhibition is inactive: -0.18%. On to `CN1CCC(Nc2ccc(Cl)cc2)CC1`, for which the inhibition is inactive: 1.88%. `CN1CCC(Nc2ccc(F)c(Cl)c2)CC1`: the inhibition is inactive: 0.24%. Regarding `CCOc1ncccc1C(=O)NCC1(N2CCOCC2)CCCCC1`, the inhibition is inactive: 2.58%.

Regarding `CCCOc1ccc(C(=O)NCC2(N(C)C)CCCCC2)cc1`, the inhibition was inactive: -1.6%. The value for `O=c1[nH]c2ccccc2n1C1CCN(C(c2cc3ccccc3o2)c2nnnn2C2CCCC2)CC1` (stereo unspecified) was inactive: 1.78%; that for `O=C(O)C1(Nc2ccccc2)CCN(Cc2ccccc2)CC1` was inactive: -3.01%; that for `NN(c1ccccc1)C1CCN(CCc2ccccc2)CC1` was inactive: -3.85%. With `CC(C)(C)OC(=O)N1CCC(Nc2ccccc2)CC1`, the inhibition is inactive: 4.1%.

As to `CC(C)(C)n1nnnc1C(c1ccnc2ccccc12)N1CCC(n2c(=O)[nH]c3ccccc32)CC1` (stereo unspecified), the inhibition was inactive: -2.56%. In the case of `CCN1CCC(Nc2cccc(F)c2)CC1`, the inhibition is inactive: 1.3%. As for `COc1ccc(C(c2nnnn2C2CCCCC2)N2CCC(n3c(=O)[nH]c4ccccc43)CC2)cc1` (stereo unspecified), the inhibition was inactive: -1.11%. Regarding `Cc1ccccc1NC1(C#N)CCN(Cc2ccccc2)CC1`, the inhibition was inactive: 1.96%.

As for `Cn1c(=O)[nH]cc(N(CCCl)CCCl)c1=O`, the inhibition was inactive: -2.39%.

Turning to `CN(C)c1ccc(C(=O)NCC2(N3CCCCC3)CCCCC2)cc1`, the inhibition is inactive: -1.58%.

With `O=C(NCC1(N2CCCCC2)CCCCC1)c1ccco1`, the inhibition was inactive: 3%. Turning to `O=c1[nH]c2ccccc2n1C1CCN(C(c2ccnc3ccccc23)c2nnnn2C2CCCCC2)CC1` (stereo unspecified), the inhibition was inactive: -2.74%. The value for `COc1cc(OC)cc(C(=O)NCC2(N3CCCCC3)CCCCC2)c1` was inactive: -4%; that for `CCC(c1nnnn1C1CCCCC1)N1CCC(n2c(=O)[nH]c3ccccc32)CC1` (stereo unspecified) was inactive: -4.86%; that for `CC(=O)N(c1ccccc1)C1CCNCC1` was inactive: -0.7%. Under `COc1cccc(C(c2nnnn2C2CCCCC2)N2CCC(n3c(=O)[nH]c4ccccc43)CC2)c1OC` (stereo unspecified) stands inactive: -1.66%; under `Cc1ccc(NC2(C#N)CCN(Cc3ccccc3)CC2)cc1`, inactive: 0.81%; under `Fc1ccccc1NC1CCN(Cc2ccccc2)CC1`, inactive: 2.67%. On to `Cc1ccc(C(=O)NCC2(N3CCCCC3)CCCCC2)o1`, for which the inhibition was inactive: 1.95%. For the compound `Cc1cc(N(CCCl)CCCl)ccc1C=O`, the inhibition is inactive: 2.91%. Consider `O=c1[nH]c2ccccc2n1C1CCN(C(c2ccccc2)c2nnnn2C2CCCC2)CC1` (stereo unspecified), for which the inhibition was inactive: -0.55%. With `CCCN1CCC(Nc2cc(OC)cc(OC)c2)CC1`, the inhibition was inactive: 13.3%. Under `c1ccc(CN2CCC(Nc3ccccc3)CC2)cc1` stands inactive: 1.03%. `C/C(N)=N\P(=O)(Oc1ccccc1)Oc1ccccc1`: the inhibition is inactive: -6.15%.

`CN(C)C1(CNC(=O)c2cccc(C#N)c2)CCCCC1`: the inhibition is inactive: -3.05%. With `CC(C)(C)n1nnnc1C(c1cccc2ccccc12)N1CCC(n2c(=O)[nH]c3ccccc32)CC1` (stereo unspecified), the inhibition is inactive: -4.35%. For `CC(C)(C)OC(=O)N1CCC(N(C(=O)c2ccccc2)c2ccc(Cl)cc2)CC1`, the inhibition was inactive: -2.53%. The value for `N#Cc1ccc(C(=O)NCC2(N3CCCCC3)CCCCC2)cc1` was inactive: 3.61%. Under `N/C(=N\O)c1c(N)no[n+]1[O-]` stands inactive: -2.85%. For `COc1cccc(C(c2nnnn2C(C)(C)C)N2CCC(n3c(=O)[nH]c4ccccc43)CC2)c1OC` (stereo unspecified), the inhibition was inactive: -4.63%. The value for `CCOC(=O)N1CCC(Nc2ccc(C)cc2)CC1` was inactive: 1.86%; that for `CCCCn1nnnc1C(c1cccc(OC)c1OC)N1CCC(n2c(=O)[nH]c3ccccc32)CC1` (stereo unspecified) was inactive: -3.75%. As to `O=c1[nH]c2ccccc2n1C1CCN(C(c2cccs2)c2nnnn2C2CCCC2)CC1` (stereo unspecified), the inhibition was inactive: -2.45%. With `O=C(OC1CN2CCC1CC2)C1c2ccccc2C=Cc2ccccc21` (stereo unspecified), the inhibition was inactive: -2.41%.

Turning to `O=C(NCC1(N2CCOCC2)CCCCC1)c1cc(Br)ccc1Cl`, the inhibition was inactive: 0.53%. Consider `COc1cc(C(=O)NCC2(N3CCOCC3)CCCCC2)cc(OC)c1C`, for which the inhibition was inactive: 4.54%. On to `CCCCn1nnnc1C(c1ccccc1)N1CCC(n2c(=O)[nH]c3ccccc32)CC1` (stereo unspecified), for which the inhibition is inactive: -0.27%. As to `O=c1[nH]c2ccccc2n1C1CCN(C(c2ccnc3ccccc23)c2nnnn2C2CCCC2)CC1` (stereo unspecified), the inhibition was inactive: -2.62%. Turning to `COc1ccc(C(=O)NCC2(N3CCOCC3)CCCCC2)cc1OC`, the inhibition is inactive: -0.54%.

On to `NC(=O)C1(Nc2ccccc2)CCN(Cc2ccccc2)CC1`, for which the inhibition was inactive: 0.63%.

Turning to `O=c1[nH]c2ccccc2n1C1CCN(C(c2cccs2)c2nnnn2C2CCCCC2)CC1` (stereo unspecified), the inhibition was inactive: 3.39%. With `O=C(NCC1(N2CCCCC2)CCCCC1)c1cncc(Br)c1`, the inhibition is inactive: -3.86%. Take `CN1CCC(Nc2cccc(F)c2)CC1`: the inhibition was inactive: -0.56%. With `CCCOc1ccc(C(=O)NCC2(N(C)C)CCCCC2)cc1OC`, the inhibition was inactive: 3.52%. As for `Cc1ccc(C(=O)NCC2(N(C)C)CCCCC2)o1`, the inhibition was inactive: -2.55%. On to `COc1ccc(C(c2nnnn2C2CCCC2)N2CCC(n3c(=O)[nH]c4ccccc43)CC2)cc1` (stereo unspecified), for which the inhibition is inactive: -1.09%.

Regarding `CN(C)c1cccc(C(=O)NCC2(N3CCCCC3)CCCCC2)c1`, the inhibition is inactive: -2.6%. The value for `COC(=O)C1(Nc2ccccc2)CCN(Cc2ccccc2)CC1` was inactive: -2.5%; that for `COc1ccc(CN(CCCl)CCCl)cc1Cl` was inactive: 8.06%; that for `CC(C)c1ccc(NC2CCN(C(=O)OC(C)(C)C)CC2)cc1` was inactive: 1.52%. Regarding `CCCCn1nnnc1C(c1ccnc2ccccc12)N1CCC(n2c(=O)[nH]c3ccccc32)CC1` (stereo unspecified), the inhibition was inactive: -2.74%. On to `O=C(NCC1(N2CCOCC2)CCCCC1)c1cc(F)c(F)cc1Cl`, for which the inhibition is inactive: 1.35%.

As to `CCC(c1nnnn1C(C)(C)C)N1CCC(n2c(=O)[nH]c3ccccc32)CC1` (stereo unspecified), the inhibition is inactive: -3.1%.
